# Measured values taken from patent US20070059364A1, “Active substance combination comprising a compound with npy receptor affinity and a compound with 5-ht6 receptor affinity” (Laboratorios Del Dr. Esteve S.A., priority 2003, published 2007).
# Amino acid sequences for entries named in this document (tags omitted).
# UniProt P50406, whole entry: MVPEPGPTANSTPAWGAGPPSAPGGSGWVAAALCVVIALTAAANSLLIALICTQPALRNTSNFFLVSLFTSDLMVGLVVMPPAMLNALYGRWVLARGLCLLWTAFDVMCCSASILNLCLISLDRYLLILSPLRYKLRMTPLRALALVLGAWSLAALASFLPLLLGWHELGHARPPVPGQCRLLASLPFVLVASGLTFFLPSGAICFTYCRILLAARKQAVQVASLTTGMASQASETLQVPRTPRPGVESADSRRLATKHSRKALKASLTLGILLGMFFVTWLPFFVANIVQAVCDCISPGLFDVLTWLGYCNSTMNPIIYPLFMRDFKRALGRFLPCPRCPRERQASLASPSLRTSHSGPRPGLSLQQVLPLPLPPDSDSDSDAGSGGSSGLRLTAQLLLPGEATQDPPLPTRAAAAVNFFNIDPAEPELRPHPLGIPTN
# Some compounds may have been tested in ways that are not shown here.
# Molecular target: recombinant human 5HT6 receptor (Homo sapiens, UniProt P50406)
# Experiment: Binding to the 5HT6 serotonin receptor, [3H]-LSD, HEK-293 cell membranes
# Details: compounds of general formula (Id), Table 1d
substance,measurement,value
"6-Chloro-1-[1-(naphthalene-1-sulfonyl)-piperidin-4-yl]-1,4-dihydro-benzo[d][1,3]oxazin-2-one",% Inhibition 10^−6 M,72.3%
